## Yeast mating assay 1: variants of the scFv Ab-14

Antigen: PDVDLGDISGINAS, a 14-residue peptide of the SARS-CoV-2 spike HR2 region.

Ab-14 is the parent antibody, in scFv form: VH, then a 15-residue (Gly4Ser)3 linker, then VL. The light chain is unchanged in all variants.
VH: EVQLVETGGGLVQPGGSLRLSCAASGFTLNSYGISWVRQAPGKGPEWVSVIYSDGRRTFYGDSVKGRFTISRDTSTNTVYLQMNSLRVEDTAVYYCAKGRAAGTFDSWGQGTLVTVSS
VL: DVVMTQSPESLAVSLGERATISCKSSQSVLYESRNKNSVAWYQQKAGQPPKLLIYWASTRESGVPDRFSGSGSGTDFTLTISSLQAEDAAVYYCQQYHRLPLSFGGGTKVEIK

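The starting antibody came from a phage panning campaign against this peptide. The library (AAYL49) carries one to three amino acid substitutions per variant, with no insertions or deletions. AlphaSeq pools MATa yeast showing the antibodies with MATalpha yeast showing the peptide. After mating in shaken culture at 30 °C for 16 h, diploids were selected and their barcode pairs sequenced. Scores were corrected for input abundance and mapped to Kd with protein pairs of known affinity run in the same pool. Each pool was mated in three replicate cultures.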

The parent's heavy chain CDRs are GFTLNSYGIS, VIYSDGRRTFYGDSVK, GRAAGTFDS; each variant's own CDRs replace them letter for letter.
This list gathers variants with a substitution at K65 (VH, numbered from residue 1).
Kd is apparent (estimated from mating counts) and averaged on the log scale over replicates with a signal. Smaller is tighter.
"not detected" means that the variant was in the library but no mating with the target was seen in any replicate; the authors take this as a sign of poor binding, and no number exists.
As a blank, each scFv also met three strains without target: over library AAYL49, 15% of these pairings were detected, typically at 11 µM and seldom below 680 nM. Also given: how often the same scFv was detected with the empty control strains.
Parent in this assay: reference entry 4.4 nM, copy in this library 13 µM (one replicate of three).

| CDR-H1 | CDR-H2 | CDR-H3 | apparent Kd | seen in | control signals |
|---|---|---|---|---|---|
| GFTLNSYGIG | VIYSDGRRTFLGDSVC | GRAAGTFDS | not detected | 0/3 | 3/9 |
| GFTTNSYGIS | VIYSDGRRRFYGDSVY | GRAAGTFDS | 77 µM | 2/3 | 7/9 |
| GFTSNSYGIS | VIYSDGRRTFYGDSVT | GRMAGTFDS | 15 µM | 1/3 | 1/9 |
| GFTLNSYGIS | VIYSDGRRTFYGDSVE | GRAEGDFDS | 150 nM | 3/3 | 0/9 |
| GFTANSYGIS | VIYSDGRTTFYGDSVT | GRAAGTFDS | 4.7 µM | 2/3 | 4/9 |
| GFTLNSYGYS | VIYSDGRREFYGDSVR | GRAAGTFDS | 29 µM | 2/3 | 5/9 |
| GFTLNAYGIS | VIYSDGRRTFYGDSVC | GRAAGTFGS | 560 nM | 1/3 | 2/9 |
| GFTLNMYGIS | VIYSDGRRTFYIDSVI | GRAAGTFDS | 90 nM | 3/3 | 1/9 |
| GFTLNSYGIS | VIYSDGRRTFYGDSVG | GRAAGSFDS | 1.0 µM | 1/3 | 1/9 |
| GFTLNSYGIS | VIYSFGRRTFYGDSVQ | GRAAGTSDS | 740 nM | 1/3 | 1/9 |
| GFTLNSYGIS | VTYSDGRRTFYGDQVE | GRAAGTFDS | not detected | 0/3 | 0/9 |
| GFTLNSYGIS | VIYSDGRRTFYGDSKV | GRAAFTFDS | not detected | 0/3 | 1/9 |
| NFTLNSYGIS | VIYSDGRRTPYGDSVQ | GRAAGTFDS | 160 µM | 2/3 | 4/9 |
| GFTLNSYLGS | VIYSDGRRTFYGDSVR | GRAAGTFDS | not detected | 0/3 | 1/9 |
| GFTLNSNGIS | VIYSDGRRTFYGDSVC | GRAAGTFDL | not detected | 0/3 | 1/9 |
| GFTYNSYGIS | VIYSDGRRTFYGDSWG | GRAAGTFDS | not detected | 0/3 | 0/9 |
| GFTLNSIGIS | VIYSDGRRTFYGDSVR | GRAAGTSDS | 1.4 µM | 2/3 | 4/9 |
| GFTLKSYGIS | VIYSDGRRTFYGDSVE | GRAAGTYDS | not detected | 0/3 | 0/9 |
| HETLNSYGIS | VIYSDGRRTFYGDSVF | GRAAGTFDS | not detected | 0/3 | 0/9 |
| GFTLNSHGIS | VIYSDGRRTFYGKSVC | GRAAGTFDS | 16 µM | 1/3 | 4/9 |
| GFTLNSYGIS | VIYSDLRRTFYRDSVW | GRAAGTFDS | not detected | 0/3 | 0/9 |
| GFTLNSYGNS | VEYSDGRRTFYGDSVS | GRAAGTFDS | 5.2 mM | 1/3 | 4/9 |
| GFTLNSYGIS | VIYSDGRRQFYGDSVL | GRAAGTYDS | not detected | 0/3 | 0/9 |
| GFTLNSYGIS | VIYGDGRRTFPGDSVA | GRAAGTFDS | 25 µM | 2/3 | 2/9 |
| GFTLGSYGIS | VINSDGRRTFYGDSVT | GRAAGTFDS | not detected | 0/3 | 0/9 |
| GFTLNSYGIS | VIYSDGRCTFYGDTVW | GRAAGTFDS | 6.0 µM | 1/3 | 3/9 |
| GETLNSYGIS | VIYSDGRRMFYGDSVN | GRAAGTFDS | 1.7 µM | 3/3 | 3/9 |
| GFTLNSYGIS | VIMSDGRRTAYGDSVH | GRAAGTFDS | not detected | 0/3 | 0/9 |
| GFTLNSYGIS | VIYSDGRRPFYGDSVA | GRAARTFDS | not detected | 0/3 | 1/9 |
| GFTLNSYGIS | VRYSDGRRTFYGDSVA | GLAAGTFDS | not detected | 0/3 | 0/9 |
| GFTYNSYGIS | VIYSDGRRTFYGDSVR | GRAAGTFDK | not detected | 0/3 | 0/9 |
| GFTLNSYGSS | VIYSDGRRTFYGDSQR | GRAAGTFDS | 160 µM | 1/3 | 1/9 |
| GFTLNSYFIS | VIYSDGRRTFYGDSVQ | GRAAGTFDS | 22 µM | 2/3 | 2/9 |
| GFTLNSYGIS | VIYSDGRRTFYGDSVI | HRAAGTFDS | 1.7 µM | 1/3 | 0/9 |
| GFTLNIYGIS | VIYSDGRRTFYGDSVT | SRAAGTFDS | 21 µM | 1/3 | 0/9 |
| GFTLNWYGIS | VIYSDGRRTFYGDGVC | GRAAGTFDS | 69 µM | 2/3 | 4/9 |
| MFTLNSYGIS | VIGSDGRRTFYGDSVC | GRAAGTFDS | not detected | 0/3 | 0/9 |
| GFTLNSYGIS | VIYSDGRRTFYGDSVC | GDAAGFFDS | 250 nM | 1/3 | 1/9 |
| GFTLNSYGIS | VIYSDGRRTFYGDSVP | GRAAGTFDS | not detected | 0/3 | 0/9 |
| KFTLNSYGIS | VIYSDGRRTFYGDSVT | GRATGTFDS | not detected | 0/3 | 0/9 |
| GFTLNSYGIS | VIYSDGRRTFYGDSVL | GRAAVTFDS | not detected | 0/3 | 0/9 |
| GFTLNSYGIA | VIYSDGNRTFYGDSVL | GRAAGTFDS | 8.3 µM | 1/3 | 3/9 |
| GMTLNSYGIS | VIYSDGRRTFYGDSVR | GRATGTFDS | 47 nM | 3/3 | 0/9 |
| GFTLNSYGIS | PIYSDGRRTFYGDSVC | GRAAGIFDS | not detected | 0/3 | 1/9 |
| GFTLNSYGIS | VIYSRGRRTFYGDSVN | GWAAGTFDS | not detected | 0/3 | 0/9 |
| GFTLNSYGIS | VIYPDGRRTFYGDSVT | VRAAGTFDS | 1.9 µM | 1/3 | 2/9 |
| GFTDNSYGIS | VIYSWGRRTFYGDSVG | GRAAGTFDS | not detected | 0/3 | 0/9 |
| GFTLNWYGIS | SIYSDGRRTFYGDSVV | GRAAGTFDS | not detected | 0/3 | 1/9 |
| IFTLNSYCIS | VIYSDGRRTFYGDSVG | GRAAGTFDS | not detected | 0/3 | 1/9 |
| GFTLNSYGIS | VIYHDGRFTFYGDSVN | GRAAGTFDS | not detected | 0/3 | 0/9 |
| GFWLNSYGIS | VIYSDGRRTDYGDSVP | GRAAGTFDS | not detected | 0/3 | 4/9 |
| GMTLNSYGIS | VIYSDGRRTFYGDSVS | WRAAGTFDS | not detected | 0/3 | 0/9 |
| GFTLNSYGIS | VIYSDGIRTFYGDSVQ | GRAAGWFDS | 2.8 µM | 1/3 | 1/9 |
| GFPINSYGIS | VIYSDGRRTFYGDSVS | GRAAGTFDS | 64 nM | 3/3 | 0/9 |
| GFRLNSYGIS | VIYSDGRRTFYGDIVT | GRAAGTFDS | 1.3 µM | 1/3 | 2/9 |
| GFTLNSYGIK | VIYSDGRRYFYGDSVL | GRAAGTFDS | not detected | 0/3 | 3/9 |
| GFTLNSYGIS | VIYRDGRRTFYLDSVP | GRAAGTFDS | 82 µM | 2/3 | 2/9 |
| GFTLNSYGIS | VIYSDGRRTFYGDSVW | GRIAGHFDS | 56 µM | 2/3 | 0/9 |
| GFTLNSYGIS | VIYSDGRQTFYGDSVP | GRAAGDFDS | 96 µM | 3/3 | 8/9 |
| GMTLNSYGCS | VIYSDGRRTFYGDSVF | GRAAGTFDS | 70 µM | 1/3 | 1/9 |
| GFTLNSYGIS | VIYSDGRRTFYGDSVW | RRAAGTNDS | not detected | 0/3 | 0/9 |
| GFTLNSYGIS | VIYSDPRRTFYGDSVA | GRAAGTFDS | 22 µM | 1/3 | 0/9 |
| GFTLNSYGIY | VIYSDQRRTFYGDSVR | GRAAGTFDS | not detected | 0/3 | 1/9 |
| GFTLNSYGIS | VIYSDGRRVFYGDSVM | GRAAGTNDS | not detected | 0/3 | 0/9 |
| GFTYNSLGIS | VIYSDGRRTFYGDSVA | GRAAGTFDS | 62 µM | 2/3 | 1/9 |
| GFTLNSMGIS | VIYSDGHRTFYGDSVH | GRAAGTFDS | 15 µM | 2/3 | 0/9 |
| GFTLNSYGIS | VIYSDGRREFYGFSVD | GRAAGTFDS | 7.2 µM | 3/3 | 8/9 |
| GFTLNSYGIS | VYYSDGRRYFYGDSVF | GRAAGTFDS | not detected | 0/3 | 0/9 |
| GFTLNSYGIS | VIYVDGRRTFYGDSVR | GRATGTFDS | not detected | 0/3 | 1/9 |
| GFTLNSYGSS | VIYSDGRRTFYHDSVD | GRAAGTFDS | 11 µM | 1/3 | 2/9 |
| GFTLNSYGIS | VIYSDGRRTFYGDSVE | GRAAGTFDN | 9.9 nM | 3/3 | 1/9 |
| GFTLNSYGIS | VIYSDGRRTFYGDSVY | PYAAGTFDS | 2.9 µM | 1/3 | 5/9 |
| GFTLNSYDIS | VIYMDGRRTFYGDSVV | GRAAGTFDS | not detected | 0/3 | 1/9 |
| GFTLNSYGIS | VIYSDGRRTFYGDSAP | GRAAGTFDS | not detected | 0/3 | 0/9 |

Repeated from above, the 8 best binders with a signal in all replicates:

| CDR-H1 | CDR-H2 | CDR-H3 | apparent Kd | seen in | control signals |
|---|---|---|---|---|---|
| GFTLNSYGIS | VIYSDGRRTFYGDSVE | GRAAGTFDN | 9.9 nM | 3/3 | 1/9 |
| GMTLNSYGIS | VIYSDGRRTFYGDSVR | GRATGTFDS | 47 nM | 3/3 | 0/9 |
| GFPINSYGIS | VIYSDGRRTFYGDSVS | GRAAGTFDS | 64 nM | 3/3 | 0/9 |
| GFTLNMYGIS | VIYSDGRRTFYIDSVI | GRAAGTFDS | 90 nM | 3/3 | 1/9 |
| GFTLNSYGIS | VIYSDGRRTFYGDSVE | GRAEGDFDS | 150 nM | 3/3 | 0/9 |
| GETLNSYGIS | VIYSDGRRMFYGDSVN | GRAAGTFDS | 1.7 µM | 3/3 | 3/9 |
| GFTLNSYGIS | VIYSDGRREFYGFSVD | GRAAGTFDS | 7.2 µM | 3/3 | 8/9 |
| GFTLNSYGIS | VIYSDGRQTFYGDSVP | GRAAGDFDS | 96 µM | 3/3 | 8/9 |

Source: Engelhart et al. 2022 (doi:10.1038/s41597-022-01779-4), MIT Lincoln Laboratory and A-Alpha Bio; data file from the FLAb repository.